Protein sequences, listed by entry. Tags and fused reporters are not part of them. Residues count along the entry.
UniProt Q9Y5Y6, whole entry: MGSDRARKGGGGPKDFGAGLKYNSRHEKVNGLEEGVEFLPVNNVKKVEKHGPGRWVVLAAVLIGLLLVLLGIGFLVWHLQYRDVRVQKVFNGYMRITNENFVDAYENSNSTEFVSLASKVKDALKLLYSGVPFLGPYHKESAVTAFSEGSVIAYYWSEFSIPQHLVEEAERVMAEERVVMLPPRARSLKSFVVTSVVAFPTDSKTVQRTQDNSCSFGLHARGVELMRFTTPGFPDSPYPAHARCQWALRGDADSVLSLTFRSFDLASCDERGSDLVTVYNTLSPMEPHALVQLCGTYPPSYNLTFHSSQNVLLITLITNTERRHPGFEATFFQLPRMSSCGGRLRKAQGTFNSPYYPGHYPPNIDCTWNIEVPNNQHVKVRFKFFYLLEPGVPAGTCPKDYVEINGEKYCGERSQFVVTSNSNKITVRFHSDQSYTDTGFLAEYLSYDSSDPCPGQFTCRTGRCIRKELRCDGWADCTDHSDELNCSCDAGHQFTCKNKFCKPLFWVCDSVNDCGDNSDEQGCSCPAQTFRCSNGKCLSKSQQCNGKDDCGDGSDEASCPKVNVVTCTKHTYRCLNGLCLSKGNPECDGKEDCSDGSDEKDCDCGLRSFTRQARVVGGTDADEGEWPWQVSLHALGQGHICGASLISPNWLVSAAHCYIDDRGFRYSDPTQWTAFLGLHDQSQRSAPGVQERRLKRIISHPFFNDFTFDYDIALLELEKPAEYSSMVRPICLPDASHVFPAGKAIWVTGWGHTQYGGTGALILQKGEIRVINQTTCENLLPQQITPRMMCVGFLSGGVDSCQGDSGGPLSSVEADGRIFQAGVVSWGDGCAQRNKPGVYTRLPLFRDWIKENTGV
UniProt P00742, 235-488 limits assumed: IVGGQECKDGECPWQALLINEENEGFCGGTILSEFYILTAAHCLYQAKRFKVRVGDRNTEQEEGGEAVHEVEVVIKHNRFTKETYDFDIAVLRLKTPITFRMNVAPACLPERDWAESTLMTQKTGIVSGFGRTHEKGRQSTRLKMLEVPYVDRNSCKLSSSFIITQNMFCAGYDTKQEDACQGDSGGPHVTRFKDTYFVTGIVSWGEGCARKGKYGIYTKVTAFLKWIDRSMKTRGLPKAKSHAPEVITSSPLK
UniProt P00742, 41-179 partner limits assumed: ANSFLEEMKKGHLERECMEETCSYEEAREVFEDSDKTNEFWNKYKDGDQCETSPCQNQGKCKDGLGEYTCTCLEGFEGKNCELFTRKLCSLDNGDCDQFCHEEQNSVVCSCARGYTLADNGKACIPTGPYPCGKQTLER

According to publication PMC9270327 (Communications Biology, 2022):

Assays:
Format in all cases: biochemical
[1] = molecular target: recombinant human matriptase (Homo sapiens, UniProt Q9Y5Y6); test: Enzyme inhibition assay with purified matriptase (Ki, dose-response); details: for matriptase activity, Mean (Fig. 2b): normalized, 0 nM = 100
[2] = molecular target: recombinant human thrombin (Homo sapiens, UniProt P00734); test: Enzyme inhibition assay with purified thrombin (Ki, dose-response); details: for thrombin activity, Mean (Fig. 2c): normalized, 0 nM = 100
[3] = molecular target: factor Xa (Homo sapiens, UniProt P00742); test: Enzyme inhibition assay with purified factor Xa (Ki, dose-response); details: compared to TMPRSS2, text

Structure (SMILES)	matriptase activity, Mean (Fig. 2b) ([1]; 0.1 nM)	matriptase activity, Mean (Fig. 2b) ([1]; 0.2 nM)	matriptase activity, Mean (Fig. 2b) ([1]; 1 nM)	matriptase activity, Mean (Fig. 2b) ([1]; 10 nM)	matriptase activity, Mean (Fig. 2b) ([1]; 100 nM)	matriptase activity, Mean (Fig. 2b) ([1]; 1000 nM)	matriptase activity, Mean (Fig. 2b) ([1]; 50000 nM)	matriptase activity, Mean (Fig. 2b) ([1]; 500000 nM)	thrombin activity, Mean (Fig. 2c) ([2]; 0.02 nM)	thrombin activity, Mean (Fig. 2c) ([2]; 0.04 nM)	thrombin activity, Mean (Fig. 2c) ([2]; 0.2 nM)	thrombin activity, Mean (Fig. 2c) ([2]; 2 nM)	thrombin activity, Mean (Fig. 2c) ([2]; 20 nM)	thrombin activity, Mean (Fig. 2c) ([2]; 200 nM)	thrombin activity, Mean (Fig. 2c) ([2]; 10000 nM)	thrombin activity, Mean (Fig. 2c) ([2]; 100000 nM)	other results
CC(=O)N[C@H](CCCNC(=N)N)C(=O)N[C@H](C(=O)NC(CCCNC(=N)N)C(=O)c1nc2ccccc2s1)[C@@H](C)O (some centres unmarked)	99.148	107.444	106.788	103.897	76.9972	23.9106	0.6006	-0.06983	99.1942	100.169	100.466	99.5334	98.8973	94.9109	98.4309	85.4962	–
CC(=O)N[C@@H](CCCNC(=N)N)C(=O)N1CCC[C@H]1C(=O)N[C@@H](CCCNC(=N)N)C(=O)c1nc2ccccc2s1	–	–	–	–	–	–	–	–	–	–	–	–	–	–	–	–	matriptase activity, Mean (control = 100), Figure S11 ([1]; inhibitor 0.1 nM): 104.708; matriptase activity, Mean (control = 100), Figure S11 ([1]; inhibitor 0.2 nM): 103.176; matriptase activity, Mean (control = 100), Figure S11 ([1]; inhibitor 1 nM): 88.2587; matriptase activity, Mean (control = 100), Figure S11 ([1]; inhibitor 10 nM): 56.7782; matriptase activity, Mean (control = 100), Figure S11 ([1]; inhibitor 100 nM): 12.0817; matriptase activity, Mean (control = 100), Figure S11 ([1]; inhibitor 1000 nM): 1.5882; matriptase activity, Mean (control = 100), Figure S11 ([1]; inhibitor 50000 nM): -0.3971; matriptase activity, Mean (control = 100), Figure S11 ([1]; inhibitor 500000 nM): -0.1134
CC(=O)N[C@@H](Cc1c[nH]cn1)C(=O)N1CCC[C@H]1C(=O)NC(CCCNC(=N)N)C(=O)c1nc2ccccc2s1 (some centres unmarked)	111.943	106.581	108.32	75.631	13.2955	–	0.06038	-0.2174	99.0488	96.801	102.681	101.103	101.038	103.977	56.5933	16.9477	matriptase activity, Mean (Fig. 2b) ([1]; 0.05 nM): 110.735
CC(=O)N[C@H](CCCNC(=N)N)C(=O)N1CCC[C@H]1C(=O)NC(CCCNC(=N)N)C(=O)c1nc2ccccc2s1 (some centres unmarked)	104.067	94.2915	70.9523	30.0834	5.431	0.6062	0.01263	-0.1263	108.177	90.3758	91.5495	90.6497	91.8623	94.0138	33.2944	7.199	selectivity over factor Xa [3]: no selectivity
CC(=O)N[C@H](Cc1c[nH]cn1)C(=O)N1CCC[C@H]1C(=O)NC(CCCNC(=N)N)C(=O)c1nc2ccccc2s1 (some centres unmarked)	79.9698	86.251	91.6482	75.3635	25.7881	2.768	0.0349	-0.09306	107.86	109.144	106.042	109.679	121.123	105.454	42.941	9.144	–
CC(=O)N[C@@H](CCCNC(=N)N)C(=O)N1CCC[C@H]1C(=O)N[C@H](CCCNC(=N)N)C(=O)c1nc2ccccc2s1	–	–	–	–	–	–	–	–	–	–	–	–	–	–	–	–	matriptase activity, Mean (control = 100), Figure S11 ([1]; inhibitor 0.1 nM): 102.57; matriptase activity, Mean (control = 100), Figure S11 ([1]; inhibitor 0.2 nM): 85.4556; matriptase activity, Mean (control = 100), Figure S11 ([1]; inhibitor 1 nM): 64.0187; matriptase activity, Mean (control = 100), Figure S11 ([1]; inhibitor 10 nM): 14.7196; matriptase activity, Mean (control = 100), Figure S11 ([1]; inhibitor 100 nM): 1.519; matriptase activity, Mean (control = 100), Figure S11 ([1]; inhibitor 1000 nM): 0.2921; matriptase activity, Mean (control = 100), Figure S11 ([1]; inhibitor 50000 nM): -0.1752; matriptase activity, Mean (control = 100), Figure S11 ([1]; inhibitor 500000 nM): -0.5257
CC(=O)N[C@H](CCCNC(=N)N)C(=O)N1CCCC[C@H]1C(=O)NC(CCCNC(=N)N)C(=O)c1nc2ccccc2s1 (some centres unmarked)	110.25	110.626	113.164	102.175	60.7586	13.1781	0.3068	0.01395	101.993	99.4488	96.7343	101.951	105.089	103.053	77.608	30.3647	–
CC(=O)N[C@@H](CC(N)=O)C(=O)N1CCC[C@H]1C(=O)NC(CCCNC(=N)N)C(=O)c1nc2ccccc2s1 (some centres unmarked)	110.803	103.176	89.5302	51.3051	11.3254	1.117	0.058	-0.1015	97.0434	97.9595	102.416	105.79	96.9601	88.1717	20.4501	5.914	–
CC(=O)N[C@H](CCCNC(=N)N)C(=O)N[C@@H](CC1CCC1)C(=O)NC(CCCNC(=N)N)C(=O)c1nc2ccccc2s1 (some centres unmarked)	–	115.188	112.911	90.0765	34.8746	8.412	0.08892	-0.1245	101.418	100.895	100.933	102.798	103.806	101.978	94.4401	57.3881	matriptase activity, Mean (control = 100), S6a ([1]; inhibitor 0.2 nM): 115.188; matriptase activity, Mean (control = 100), S6a ([1]; inhibitor 1 nM): 112.911; matriptase activity, Mean (control = 100), S6a ([1]; inhibitor 10 nM): 90.0765; matriptase activity, Mean (control = 100), S6a ([1]; inhibitor 100 nM): 34.8746; matriptase activity, Mean (control = 100), S6a ([1]; inhibitor 1000 nM): 8.412; matriptase activity, Mean (control = 100), S6a ([1]; inhibitor 50000 nM): 0.08892; matriptase activity, Mean (control = 100), S6a ([1]; inhibitor 500000 nM): -0.1245; thrombin activity, Mean (control = 100), S6b ([2]; inhibitor 0.02 nM): 101.418; thrombin activity, Mean (control = 100), S6b ([2]; inhibitor 0.04 nM): 100.895; thrombin activity, Mean (control = 100), S6b ([2]; inhibitor 0.2 nM): 100.933; thrombin activity, Mean (control = 100), S6b ([2]; inhibitor 2 nM): 102.798; thrombin activity, Mean (control = 100), S6b ([2]; inhibitor 20 nM): 103.806; thrombin activity, Mean (control = 100), S6b ([2]; inhibitor 200 nM): 101.978; thrombin activity, Mean (control = 100), S6b ([2]; inhibitor 10000 nM): 94.4401; thrombin activity, Mean (control = 100), S6b ([2]; inhibitor 100000 nM): 57.3881
